According to patent US9962360B2, “Compositions and methods for enhancing hair growth, promoting skin regeneration, and wound healing” (The Hospital for Sick Children, priority 2014, dated 2018):

System: NIH-3T3 cells
Assay: Ki67 assay in NIH-3T3 cells
Conditions: similar assay as for SKPs

| Compound | Ki67-positive NIH-3T3 cells |
| --- | --- |
| trimebutine maleate [TM] | unaffected |
| CCCCC[C@H](O)/C=C/[C@H]1[C@H](O)CC(=O)[C@@H]1CCCCCCC(=O)O [Alp, alprostadil] | unaffected |
